Data: US20240301324A1, “COMPOSITION” (Croda International Plc, priority 2021, published 2024)

Tested on: zein protein
Experiment: Zein solubilisation (mildness to skin)
Details: 10% active solution of SLES, before addition of CAPB

Sodium Lauryl Ether Sulphate [SLES]
zein solubilisation percentage: 90%
